Laboratory results from ChEMBL document CHEMBL1137202, “Synthesis and biological activity of new potential agonists for the human adenosine A2A receptor” (J Med Chem, 2004).

By UniProt entry, the sequences of proteins in these tests, tags left out.
UniProt P30542, whole entry: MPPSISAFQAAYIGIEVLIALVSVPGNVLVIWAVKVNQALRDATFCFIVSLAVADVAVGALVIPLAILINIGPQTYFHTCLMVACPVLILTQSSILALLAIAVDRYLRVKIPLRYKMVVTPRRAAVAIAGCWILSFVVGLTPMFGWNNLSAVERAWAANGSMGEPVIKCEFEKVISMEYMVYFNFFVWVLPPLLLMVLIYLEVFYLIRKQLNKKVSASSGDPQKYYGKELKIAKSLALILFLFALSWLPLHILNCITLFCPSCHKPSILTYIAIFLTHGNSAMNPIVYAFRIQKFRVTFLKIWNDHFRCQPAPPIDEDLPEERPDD

Target: Adenosine receptor A1 (Homo sapiens, UniProt P30542)
Test: Inhibition of [3H]DPCPX binding to human adenosine A1 receptor expressed in CHO cells
Assay type: cell-based

CCn1nnc([C@H]2O[C@@H](n3cnc4c(N)nc(N[C@H](CO)Cc5ccc(O)cc5)nc43)[C@H](O)[C@@H]2O)n1
Ki: 600 nM
